Results taken from US20060141546A1, “Bacterial test method by glycated label binding” (priority 2002, published 2006).

Key:
S. faec. = test: Competitive inhibition of ALP binding to bacteria by added protein (Example 3, Table 2); conditions: protein 2-40 μg added with ALP 2 μg
Description: (§1) Less than 20% was no inhibition (NI) and greater than 90% was complete inhibition (CI) with a binding constant great than ALP.
(§2) Bacterial cells (1 to 4.5×10^7 cells/mL) were washed twice with water after centrifugation to separate cells into a packed pellet from the supernatant liquid. The washed cells in pellet form were suspended in 20 ul of N-2-hydroxyethyl piperazine-N′-[3-propane sulfonic acid] EPPS buffer (50 mM at pH 8.0) and 30 μL of water. Glycated protein(s) (2-40 μg) were added. In some cases a glycated protein (2-40 μg) and bovine intestinal alkaline phosphatase (ALP) (2 μg or […]) were added and the binding of the glycated protein measured by the reduction of binding of ALP.
(§3) The mixture of glycated protein and bacterial cells was left at 25° C. for 15 minutes. The mixture was then centrifuged at 30,000 rpm for 30 minutes after which the bacterial cells formed a pellet at the bottom of the tube and were washed with water 4-5 times (50 μL). Centrifugation allows separation of glycoprotein bound to the bacteria cells from unbound glycated protein(s).
(§4) After washing, the bacterial pellets were suspended in 50 μL of borate buffer (25 mM at pH 9.0). […] The color is read at 405 nm using a ELISA plate reader between 15-30 min. The absorbance is directly proportional to the amount of ALP bound to the bacteria cell adhesions for glycated groups. […]

E. coli = test: as above; conditions: protein 2-40 μg added with ALP 2 μg
Description: as §1, §2, §3, §4

In the case of “Albumin: glycated protein, simple carbohydrates”, the “inhibition of the binding of ALP by bacteria” value (S. faec.) is reported as 61% and the “inhibition of the binding of ALP by bacteria” value (E. coli) is reported as 50%.
